Literature values as cited in publication PMC3930474 (Journal of controlled release : official journal of the …, 2013).

Conditions: mouse albumin in mouse; cited from earlier work

mouse albumin: mouse serum albumin, literature half-life comparison
plasma half-life: 28.8 h
